Measured water solubility values of organic chemicals

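These are experimental values that the OPERA curators gathered from public databases to train and test their QSAR models. One number stands for a compound and property, with no spread given. How each value was measured is not recorded, so precision varies. A value may pool stereoisomers or salt forms, and the file does not say which form was measured. Some entries may be limits or estimates that an upstream database listed as plain numbers.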

Solubility in water is on a log10 molar scale (set defined at 25 °C).

The entry for COC(=O)C(C)Oc1ccc(Oc2ccc(Cl)cc2Cl)cc1 (racemic) [Methyl (RS)-2-[4-(2,4-dichlorophenoxy)phenoxy]propionate] lists water solubility -5.13 (log10 mol/L). Listed for CO[C@]12CC[C@@]3(C[C@@H]1[C@](C)(O)C(C)(C)C)[C@H]1Cc4ccc(O)c5c4[C@@]3(CCN1CC1CC1)[C@H]2O5 [Buprenorphine]: water solubility -4.408 (log10 mol/L). Nc1c(Cl)c(Cl)c(Cl)c(Cl)c1Cl [Pentachloroaniline] is reported with water solubility -6.101 (log10 mol/L). CCOP(=O)(NC(C)C)Oc1ccc(S(C)(=O)=O)c(C)c1 (centres undefined) [Fenamiphos sulfone] has water solubility -2.73 (log10 mol/L).

The entry for NCCC(NC(=O)C(N)CCC/N=C(\N)N[N+](=O)[O-])C(N)=O.O=C(O)C(F)(F)F.O=C(O)C(F)(F)F (stereo partly drawn) lists water solubility -1.039 (log10 mol/L). For C[C@]12CC[C@H](O)C[C@@H]1CC[C@@H]1[C@@H]2CC[C@]2(C)[C@@H](O)CC[C@@H]12 [3beta,17beta-Androstanediol] the data give water solubility -1.989 (log10 mol/L). For O=C(NC(=O)c1c(F)cccc1F)Nc1cc(Cl)c(OC(F)(F)C(F)C(F)(F)F)cc1Cl (centres undefined) [Lufenuron] the data give water solubility -6.991 (log10 mol/L). For O=C([O-])C(F)(F)C(F)(F)C(F)(F)C(F)(F)C(F)(F)F.[Na+] [Sodium perfluorohexanoate] the data give water solubility -4.057 (log10 mol/L).

CCC(C)I (centres undefined) [2-Iodobutane] is reported with water solubility -2.943 (log10 mol/L). The entry for CCCCc1c(C)nc(NCC)nc1O [Ethirimol] lists water solubility -2.997 (log10 mol/L). For O=C(O)C(F)(F)F.O=C([O-])C(F)(F)F.O=C([O-])C(F)(F)F.c1ccc2c(c1)c1cc[n+]2CCCCC[n+]2ccc(c3ccccc32)NCCCCCN1 the data give water solubility -1.629 (log10 mol/L). For CN1CN(Cc2ccccc2)CN(Cc2cnc(Cl)s2)/C1=N/[N+](=O)[O-] the data give water solubility -3.539 (log10 mol/L).

The entry for CC(Cl)(Cl)C(=O)[O-].[Na+] [Dalapon-sodium] lists water solubility 0.581 (log10 mol/L). CC(C)=CCN1CC[C@]2(C)c3cc(O)ccc3C[C@H]1[C@H]2C (racemic) has water solubility -3.801 (log10 mol/L). CCS(=O)CCSP(=S)(OC)OC (centres undefined) [S-[2-(Ethanesulfinyl)ethyl] O,O-dimethyl phosphorodithioate] is reported with water solubility -0.914 (log10 mol/L). For N#Cc1sc2c(=O)c3ccccc3c(=O)c=2sc1C#N [Dithianon] the data give water solubility -6.13 (log10 mol/L).

The entry for S=P(S)(Oc1ccccc1)Oc1ccccc1 [O,O-Diphenyl hydrogen phosphorodithioate] lists water solubility -0.071 (log10 mol/L). Listed for C=CCC1(C(C)CC)C(=O)NC(=O)NC1=O (centres undefined) [Talbutal]: water solubility -2.018 (log10 mol/L). c1cnc2c(c1)ccc1ncccc12 has water solubility -2.68 (log10 mol/L). O=C1NC(=O)C(=O)C(=O)N1 [Alloxan] has water solubility -1.25 (log10 mol/L).

The entry for O=S(=O)(O)C(F)(F)C(F)(F)C(F)(F)C(F)(F)C(F)(F)C(F)(F)F [Perfluorohexanesulfonic acid] lists water solubility -3.216 (log10 mol/L). O=C1c2ccccc2C(=O)N1SC1CCCCC1 [N-(Cyclohexylthio)phthalimide] has water solubility -4.354 (log10 mol/L). For CC1CC(=O)O1 (centres undefined) [beta-Butyrolactone] the data give water solubility -0.343 (log10 mol/L). Listed for CN1C(=O)CN=C(c2ccccc2F)c2cc(Cl)ccc21 [Fludiazepam]: water solubility -4.323 (log10 mol/L).

Brc1c(Br)c(Br)c(Oc2c(Br)c(Br)c(Br)c(Br)c2Br)c(Br)c1Br [1,1'-Oxybis[2,3,4,5,6-pentabromobenzene]] has water solubility -9.979 (log10 mol/L). The entry for c1cc(OCC2CO2)cc(OCC2CO2)c1 (centres undefined) [Diglycidyl resorcinol ether] lists water solubility -3.126 (log10 mol/L). FC(F)(F)c1ccc(OCCCOc2c(Cl)cc(OCC=C(Cl)Cl)cc2Cl)nc1 [Pyridalyl] is reported with water solubility -3.515 (log10 mol/L). NNC(=S)NN [Thiocarbazide] has water solubility -1.28 (log10 mol/L).

Nc1ccc(Br)cc1 [4-Bromoaniline] is reported with water solubility -2.39 (log10 mol/L). CCCCCCCC(=O)OOC(=O)CCCCCCC [Peroxide, bis(1-oxooctyl)] is reported with water solubility -7.612 (log10 mol/L). Nc1ncnc2c1ccn2[C@@H]1O[C@H](CO)[C@@H](O)[C@H]1O is reported with water solubility -1.95 (log10 mol/L). For COc1cc2c(c(OC)c1OC)-c1ccc(O)c(=O)cc1[C@@H](N)CC2 the data give water solubility -1.39 (log10 mol/L).

Extract of 2 entries:

Listed for O=C([O-])C(F)(F)C(F)(F)C(F)(F)C(F)(F)C(F)(F)F.[Na+] [Sodium perfluorohexanoate]: water solubility -4.057 (log10 mol/L).
Listed for S=P(S)(Oc1ccccc1)Oc1ccccc1 [O,O-Diphenyl hydrogen phosphorodithioate]: water solubility -0.071 (log10 mol/L).

Source: data files of OPERA 2.9 (Mansouri et al.), github.com/kmansouri/OPERA.